# Literature values in publication PMC3966047, “Analysis of the minimal specificity of caspase-2 and identification of Ac-VDTTD-AFC as a caspase-2-selective peptide substrate” (Bioscience Reports, 2014).
# Experiments:
# caspase-2 = conditions: site DVPD↓C; cited from earlier work
# Description: It seems likely that identification of caspase-2 substrates may provide valuable clues to its biological role. […] Apoptotic signalling by caspase-2 has been proposed to result from its processing of the pro-apoptotic Bcl-2 relative Bid. […] Runx1 plays a critical role in haematopoiesis, and Runx1 translocations or other mutations occur frequently in myeloid leukaemias, and less commonly in other cancer types. […] Caspase-2 was predicted to cleave Runx1 at the site DVPD^99↓G, within the βB-C ...
# caspase-3 = target: T1, caspase-3 (Homo sapiens, UniProt P42574); conditions: site DVPD↓C; cited from earlier work
# T1 construct: made in house; host or cells: E. coli BL21(DE3)pLysS
# T1 sequence (P42574 29-175 limits assumed): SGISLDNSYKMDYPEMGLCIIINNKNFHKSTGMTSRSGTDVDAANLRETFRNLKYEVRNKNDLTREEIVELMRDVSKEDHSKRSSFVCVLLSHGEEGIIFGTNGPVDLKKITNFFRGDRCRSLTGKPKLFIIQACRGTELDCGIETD
# T1 sequence (P42574 176-277 limits assumed): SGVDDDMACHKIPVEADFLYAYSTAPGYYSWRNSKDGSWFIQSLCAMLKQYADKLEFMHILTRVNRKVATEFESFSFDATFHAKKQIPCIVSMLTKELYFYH
# Description: Bioinformatic analyses, using the data from the transcriptional reporter system, predicted that caspase-2 could cleave Runx1. Runx1 plays a critical role in haematopoiesis, and Runx1 translocations or other mutations occur frequently in myeloid leukaemias, and less commonly in other cancer types. […] Caspase-2 was predicted to cleave Runx1 at the site DVPD^99↓G, within the βB-C ...
substance,measurement,setting,value
MDM-2: murine double minute 2,cleavage by caspase-2 (in words),caspase-2,cleaved by caspase-2
same,cleavage by caspase-3 compared with caspase-2 (in words),caspase-3,less potently by caspase-3
